Columns and labels:
Carnobacterium divergens [1] = assay: Activity of Carnobacterium divergens BM4489 penicillinase Cad-1 assessed as initial rate of hydrolysis by spectrophotometer
Carnobacterium divergens [2] = assay: Ratio of Kcat to Km of Carnobacterium divergens BM4489 penicillinase Cad-1
Carnobacterium divergens [3] = assay: Ratio of Kcat to Km of Carnobacterium divergens BM4489 penicillinase Cad-1 relative to benzyl-penicillin

For `CC(=O)OCC1=C(C(=O)O)N2C(=O)[C@@H](NC(=O)Cc3cccs3)[C@H]2SC1`, the Km (Carnobacterium divergens [1]) was 24 µM, the kcat (Carnobacterium divergens [1]) was 0.1 s⁻¹ and the kcat/Km (Carnobacterium divergens [2]) was 4000 M⁻¹ s⁻¹. For the same molecule, the kcat/Km (Carnobacterium divergens [3]) was 0.06.

From ChEMBL document CHEMBL1151476, “Genetic and biochemical characterization of CAD-1, a chromosomally encoded new class A penicillinase from Carnobacterium divergens” (Antimicrob Agents Chemother, 2008)
